For orientation: IC50 means the point on the concentration scale where inhibition reaches its midpoint. High values mean weaker potency in that assay, low ones greater potency in that assay. The term MIC denotes the smallest concentration in the dilution series that meets the test's criterion for growth inhibition.

Sequences of proteins named here, by UniProt entry; tags and fusion partners are left off. A change or cut given only in a name is not applied to a line headed by its entry.
UniProt P05193: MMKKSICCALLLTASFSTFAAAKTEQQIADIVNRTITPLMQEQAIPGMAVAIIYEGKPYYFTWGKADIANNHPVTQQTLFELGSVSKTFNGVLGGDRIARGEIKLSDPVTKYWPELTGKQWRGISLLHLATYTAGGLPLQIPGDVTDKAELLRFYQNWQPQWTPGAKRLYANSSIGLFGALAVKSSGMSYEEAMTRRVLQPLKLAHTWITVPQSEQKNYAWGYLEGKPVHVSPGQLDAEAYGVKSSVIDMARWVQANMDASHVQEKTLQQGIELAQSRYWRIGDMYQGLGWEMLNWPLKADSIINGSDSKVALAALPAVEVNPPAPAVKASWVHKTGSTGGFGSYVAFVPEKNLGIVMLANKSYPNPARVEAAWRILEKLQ
UniProt P05364, whole entry: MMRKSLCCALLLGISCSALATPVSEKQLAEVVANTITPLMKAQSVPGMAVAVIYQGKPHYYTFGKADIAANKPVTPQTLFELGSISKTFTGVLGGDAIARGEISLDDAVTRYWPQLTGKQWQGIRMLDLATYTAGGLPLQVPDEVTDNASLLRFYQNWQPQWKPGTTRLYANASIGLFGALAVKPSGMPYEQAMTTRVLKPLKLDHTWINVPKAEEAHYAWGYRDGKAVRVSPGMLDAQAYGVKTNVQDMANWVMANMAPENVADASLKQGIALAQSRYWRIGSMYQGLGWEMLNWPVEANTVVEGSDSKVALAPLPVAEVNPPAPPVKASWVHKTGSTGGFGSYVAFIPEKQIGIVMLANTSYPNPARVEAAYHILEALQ
UniProt P62593, whole entry: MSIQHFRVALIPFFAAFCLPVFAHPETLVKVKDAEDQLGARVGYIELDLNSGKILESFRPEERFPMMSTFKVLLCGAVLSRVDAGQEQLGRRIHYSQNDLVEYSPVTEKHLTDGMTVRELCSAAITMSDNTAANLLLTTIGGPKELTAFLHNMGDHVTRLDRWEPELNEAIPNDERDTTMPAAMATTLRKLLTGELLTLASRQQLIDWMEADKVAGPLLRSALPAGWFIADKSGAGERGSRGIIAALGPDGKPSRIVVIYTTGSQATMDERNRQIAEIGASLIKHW
UniProt P24735: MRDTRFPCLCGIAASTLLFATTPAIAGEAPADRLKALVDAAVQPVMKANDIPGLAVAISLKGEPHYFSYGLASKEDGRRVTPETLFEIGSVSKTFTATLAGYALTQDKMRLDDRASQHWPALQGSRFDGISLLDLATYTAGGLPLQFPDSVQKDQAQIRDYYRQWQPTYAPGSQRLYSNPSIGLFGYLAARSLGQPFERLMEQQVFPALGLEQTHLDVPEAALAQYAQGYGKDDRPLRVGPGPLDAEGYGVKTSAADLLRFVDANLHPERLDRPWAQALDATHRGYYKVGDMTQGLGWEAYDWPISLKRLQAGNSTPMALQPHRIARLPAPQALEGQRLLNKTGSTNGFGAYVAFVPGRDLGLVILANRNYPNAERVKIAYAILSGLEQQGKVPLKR

Bounds are passed on as bounds.

This is an account of results in ChEMBL document CHEMBL1129642, “Design, synthesis, and evaluation of 2 beta-alkenyl penam sulfone acids as inhibitors of beta-lactamases” (J Med Chem, 1996).

For assay [1], the target named is T1, Penicillin-binding protein 4 (Staphylococcus aureus, UniProt P72355).
T1 sequence (P72355 whole entry): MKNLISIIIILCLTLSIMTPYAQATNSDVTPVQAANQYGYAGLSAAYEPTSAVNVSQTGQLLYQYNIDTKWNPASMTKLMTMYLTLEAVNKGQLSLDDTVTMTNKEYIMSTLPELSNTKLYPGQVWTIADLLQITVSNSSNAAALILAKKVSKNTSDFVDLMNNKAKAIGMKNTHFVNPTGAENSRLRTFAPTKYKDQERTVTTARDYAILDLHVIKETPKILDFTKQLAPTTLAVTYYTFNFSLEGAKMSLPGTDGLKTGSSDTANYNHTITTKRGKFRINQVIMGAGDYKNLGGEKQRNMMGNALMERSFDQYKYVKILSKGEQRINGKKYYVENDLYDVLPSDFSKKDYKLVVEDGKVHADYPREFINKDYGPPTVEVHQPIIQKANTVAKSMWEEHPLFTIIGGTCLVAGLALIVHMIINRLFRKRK
As to the kind of experiment: Compound was tested for inhibition of Penicillin-binding protein 4 from Staphylococcus aureus (Schoch). In a few lines: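 Staphylococcus aureus Schoch membrane fragments served as the PBP source. Penicillin binding was measured with 14C-labeled benzylpenicillin, and inhibition of binding to the individual PBP is reported as IC50 in µM.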

Assay [2] can be described thus: Compound was tested for inhibition of pTEM-3 from Escherichia coli in combination with Ceftriaxone (expressed in MIC). Format: functional. An outline of the steps: (§1)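 MICs determined by serial 2-fold dilution in Mueller-Hinton broth with an inoculum of approximately 10⁵ cfu/mL. The test compound was combined with ceftriaxone.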
Assay [3] can be described thus: Compound was tested for inhibition of TEM-3, class A of beta-lactamases. Format: functional, Escherichia coli.
A short description of assay [4]: Compound was tested for inhibition of TEM-1, class A of beta-lactamases. Format: functional, Escherichia coli.
Assay [5] concerns the target Beta-lactamase (Citrobacter freundii, UniProt P05193). As to the kind of experiment: Compound was tested for inhibition of Citrobacter freundii 1928, class C of Beta-lactamase.
Assay [6] deals with T2, Penicillin-binding protein 2 (Staphylococcus aureus, UniProt Q53729).
T2 sequence (Q53729 whole entry): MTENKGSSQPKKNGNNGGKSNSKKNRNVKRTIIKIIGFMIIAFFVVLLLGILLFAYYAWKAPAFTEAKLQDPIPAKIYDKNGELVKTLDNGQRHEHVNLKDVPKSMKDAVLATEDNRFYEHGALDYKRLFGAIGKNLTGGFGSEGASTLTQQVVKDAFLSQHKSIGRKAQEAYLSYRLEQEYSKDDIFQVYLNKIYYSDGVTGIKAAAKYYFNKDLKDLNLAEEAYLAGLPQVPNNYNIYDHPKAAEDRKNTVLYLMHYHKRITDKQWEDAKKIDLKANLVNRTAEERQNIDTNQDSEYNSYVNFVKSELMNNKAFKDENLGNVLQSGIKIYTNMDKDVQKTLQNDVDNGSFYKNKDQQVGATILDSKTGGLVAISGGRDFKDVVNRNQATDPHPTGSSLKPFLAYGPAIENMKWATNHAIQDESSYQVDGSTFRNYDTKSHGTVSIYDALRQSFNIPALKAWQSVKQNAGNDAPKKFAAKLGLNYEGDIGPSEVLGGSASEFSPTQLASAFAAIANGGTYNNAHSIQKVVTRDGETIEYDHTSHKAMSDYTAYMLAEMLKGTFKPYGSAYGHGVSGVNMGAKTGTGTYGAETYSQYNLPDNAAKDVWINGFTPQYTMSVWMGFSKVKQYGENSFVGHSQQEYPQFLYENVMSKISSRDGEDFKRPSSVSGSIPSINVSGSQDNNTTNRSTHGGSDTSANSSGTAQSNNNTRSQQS
As to the kind of experiment: Compound was tested for inhibition of Penicillin-binding protein 2 from Staphylococcus aureus (Schoch).

Assay [7] addresses T3, Beta-lactamase (Enterobacter cloacae, UniProt P05364). As to the kind of experiment: Compound was tested for inhibition of Beta-lactamase from Ent. cloacae 6300.
Assay [8] in a line: Compound was tested for inhibition of 1b Penicillin-binding protein from Escherichia coli.
In assay [9] the target is Beta-lactamase TEM (Escherichia coli, UniProt P62593). As to the kind of experiment: Compound was tested for inhibition of Beta-lactamase from RTEM-3.
Assay [10] is described as follows: Compound was tested for inhibition of pTEM-4 from Escherichia coli in combination with Ceftriaxone (not active). Format: functional. In a few lines: as §1
Assay [11] concerns the target T4, Peptidoglycan D,D-transpeptidase MrdA (Escherichia coli K-12, UniProt P0AD65).
T4 sequence (P0AD65 whole entry): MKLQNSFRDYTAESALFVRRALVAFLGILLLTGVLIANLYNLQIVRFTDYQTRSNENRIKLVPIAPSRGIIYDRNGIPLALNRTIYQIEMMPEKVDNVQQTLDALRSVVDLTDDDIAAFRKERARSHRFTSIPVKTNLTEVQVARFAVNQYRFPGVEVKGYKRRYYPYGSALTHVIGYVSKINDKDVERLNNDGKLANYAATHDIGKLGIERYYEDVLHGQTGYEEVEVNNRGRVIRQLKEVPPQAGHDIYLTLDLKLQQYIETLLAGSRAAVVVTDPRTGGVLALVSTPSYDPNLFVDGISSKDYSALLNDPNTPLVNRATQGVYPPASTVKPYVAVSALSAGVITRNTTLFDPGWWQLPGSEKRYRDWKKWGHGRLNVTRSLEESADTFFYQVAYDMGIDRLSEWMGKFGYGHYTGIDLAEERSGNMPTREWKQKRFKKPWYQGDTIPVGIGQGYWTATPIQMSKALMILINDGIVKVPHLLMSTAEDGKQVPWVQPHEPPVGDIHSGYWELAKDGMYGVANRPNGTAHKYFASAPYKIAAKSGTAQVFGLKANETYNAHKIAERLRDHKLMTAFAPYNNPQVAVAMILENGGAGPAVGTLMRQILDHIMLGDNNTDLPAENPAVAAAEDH
As to the kind of experiment: Compound was tested for inhibition of Penicillin-binding protein 2 from Escherichia coli.

Assay [12] in a line: Compound was tested for inhibition of Penicillin-binding protein 1 from Staphylococcus aureus (Schoch). On the set-up: species or system Streptococcus pneumoniae.
In assay [13] the target is Beta-lactamase (Pseudomonas aeruginosa (strain ATCC 15692 / PAO1 / 1C / PRS 101 / LMG12228), UniProt P24735). As to the kind of experiment: Compound was tested for inhibition of Beta-lactamase from Pseudomonas aeruginosa 18SH.
The target of assay [14] is T3, Beta-lactamase. As to the kind of experiment: Compound was tested for inhibition of Beta-lactamase from Escherichia coli SN03.

On to `C[C@]1(/C=C\c2cncs2)[C@H](C(=O)[O-])N2C(=O)C[C@H]2S1(=O)=O.[Na+]`, for which the half-inhibitory concentration (IC50) in assay [1] was determined as 14000 nM.
For `C[C@]1(/C=C\C#N)[C@H](C(=O)O)N2C(=O)C[C@H]2S1(=O)=O`, in [2], the minimal inhibitory concentration (MIC) was below 0.25 µg/mL. Moreover, the concentration for half-maximal inhibition (IC50) in [3] stood at 690 nM; in assay [4], 1300 nM.
As to `CCOC(=O)/C=C\[C@@]1(C)[C@H](C(=O)O)N2C(=O)C[C@H]2S1(=O)=O`, the IC50 in assay [5] is 370 nM.
As to `C[C@]1(C=CC#N)[C@H](C(=O)O)N2C(=O)C[C@H]2S1(=O)=O` [Ro-481220], the MIC was below 0.25 µg/mL in [2] and 1 µg/mL in [10]. The IC50 stood at 17000 nM in assay [6]; 3400 nM in assay [7]; 340000 nM in assay [8]; 130 nM in assay [9]; 34000 nM in [11]; 200000 nM in assay [12]. In addition, the 50% inhibitory concentration (IC50) in assay [13] was 380 nM; in [4], 1100 nM; in assay [14], 1510 nM.
The compound `C[C@]1(/C=C/c2cncs2)[C@H](C(=O)O)N2C(=O)C[C@H]2S1(=O)=O` displayed a concentration for half-maximal inhibition (IC50) in assay [1] of 143000 nM.
